This is a selection; strong and weak results do not stand in their true shares. Some results for these compounds are left out of this collection, so the calls shown say nothing about other tests. Calls of active or inactive are those of the source.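 Rule for the calls: active = ratio signal rise beyond 5 SD above unstimulated control wells' mean, seen in both duplicate runs; inactive = the rest.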
Molecular target: Short transient receptor potential channel 6 (Mus musculus) (UniProt Q61143)
Assay: mouse TRPC6 channel activators, confirmation, HEK293 cells, membrane potential dye, duplicate (AID 488961)
Settings: HEK293-TRPC6 membrane potential dye fluorescence, FDSS; at 10 µM

Amino acid sequences for entries named in this document (tags omitted).
UniProt Q61143, whole entry: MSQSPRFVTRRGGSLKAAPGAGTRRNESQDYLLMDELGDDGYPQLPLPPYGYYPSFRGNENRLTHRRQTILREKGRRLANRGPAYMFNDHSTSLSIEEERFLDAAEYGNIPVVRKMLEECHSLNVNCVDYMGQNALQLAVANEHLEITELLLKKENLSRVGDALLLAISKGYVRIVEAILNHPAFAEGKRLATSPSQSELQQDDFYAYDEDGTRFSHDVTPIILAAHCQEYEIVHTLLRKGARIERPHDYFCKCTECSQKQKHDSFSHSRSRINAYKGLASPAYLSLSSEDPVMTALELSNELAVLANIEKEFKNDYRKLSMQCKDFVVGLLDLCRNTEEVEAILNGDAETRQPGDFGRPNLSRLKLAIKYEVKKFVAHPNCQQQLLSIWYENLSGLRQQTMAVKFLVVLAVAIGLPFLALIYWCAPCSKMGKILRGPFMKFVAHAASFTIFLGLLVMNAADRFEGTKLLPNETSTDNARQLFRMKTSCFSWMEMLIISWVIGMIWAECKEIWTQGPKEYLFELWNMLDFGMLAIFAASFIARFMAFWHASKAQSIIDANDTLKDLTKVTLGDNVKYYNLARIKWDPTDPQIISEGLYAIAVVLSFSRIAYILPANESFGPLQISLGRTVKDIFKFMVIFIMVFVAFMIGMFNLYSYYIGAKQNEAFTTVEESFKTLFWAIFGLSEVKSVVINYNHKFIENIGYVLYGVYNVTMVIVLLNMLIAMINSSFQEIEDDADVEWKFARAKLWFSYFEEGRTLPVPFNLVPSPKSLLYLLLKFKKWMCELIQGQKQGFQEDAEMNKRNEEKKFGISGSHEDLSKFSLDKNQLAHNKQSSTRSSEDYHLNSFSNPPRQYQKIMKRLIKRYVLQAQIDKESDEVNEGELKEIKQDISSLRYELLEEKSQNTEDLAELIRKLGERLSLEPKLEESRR

Row | SMILES | outcome
1 | O=C(OC1CN2CCC1CC2)C(CO)(c1ccccc1)c1ccccc1 (stereo unspecified) | inactive
